Experimental data from patent US20120177756A1, “Synergistic Compositions That Treat or Inhibit Pathological Conditions Associated With Inflammatory Response” (METAPROTEOMICS, LLC, priority 2002, published 2012).
In brackets after ≈: the same amount, converted by molar mass.

Tested on: PGE2 synthesis in AGS cells
Experiment: PGE2 inhibition in non-stimulated AGS gastric mucosal cells
Type: cell-based, human
Conditions: 100 μM arachidonic acid

- IC50 AGS: 0.055 µg/mL (≈ 0.144 µM)
SMILES: Cc1ccc(-c2cc(C(F)(F)F)nn2-c2ccc(S(N)(=O)=O)cc2)cc1 [Celexocib]
